Measured values from US9720000B2, “Targeted identification of immunogenic peptides” (The Henry M. Jackson Foundation for the Advancement of …, priority 2005, dated 2017).

Experiments:
Format in all cases: cell-based
SKOV-3 tumor cells = assay: 51Cr-release cytotoxicity (CTX) assay with peptide-stimulated CTL against SKOV-3
Protocol: (§1) The binding of trastuzumab (Herceptin) to HER2/neu for the development of novel vaccines against HER2/neu-expressing tumors was studied. The Ab-binding site of trastuzumab (Tz) was analyzed for peptides that bind HLA-A2 and A3. A peptide Her577 (aa; 577-585) within the Ab-binding site on HER2/neu was identified, synthesized and tested. T2 HLA-stabilization assays were performed to confirm HLA-A2 binding activity of Her577 by flow cytometry. PBMC from 9 healthy donors were stimulated with Her577 and tested in ^51Cr-release cytotoxicity (CTX) assays against 3 HER2/neu-expressing tumor cell lines. Her577-stimulated PBMC from 5 HLA-A2^+ healthy donors were also tested in CTX with HER/2/neu^+ targets pre-treated with Tz.

MCF-7 tumor cells = assay: 51Cr-release cytotoxicity (CTX) assay with peptide-stimulated CTL against MCF-7
Protocol: as §1

LNCaP tumor cells = assay: 51Cr-release cytotoxicity (CTX) assay with peptide-stimulated CTL against LNCaP
Protocol: as §1

[1] = 10 and 50 μg/ml doses of Tz, Her577-stimulated CTL

Substance	change in CTX against SKOV-3 with Tz dose (SKOV-3 tumor cells; [1])	change in CTX against MCF-7 with Tz dose (MCF-7 tumor cells; [1])	change in CTX against LNCaP with Tz dose (LNCaP tumor cells; [1])	average specific CTX (% lysis) against SKOV-3 (SKOV-3 tumor cells; peptide-stimulated CTL from healthy donor PBMC, SKOV-3 (HLA-A3+), n = 2) [% lysis]	average specific CTX (% lysis) against MCF-7 (MCF-7 tumor cells; peptide-stimulated CTL from healthy donor PBMC, MCF-7 (HLA-A2+), n = 5) [% lysis]	average specific CTX (% lysis) against LNCaP (LNCaP tumor cells; peptide-stimulated CTL from healthy donor PBMC, LNCaP (HLA-A2+), n = 2) [% lysis]
trastuzumab [Tz]	dose-dependent incremental increase	dose-dependent incremental increase	dose-dependent incremental increase	–	–	–
E75: immunogenic peptide from HER2/neu; E75 vaccine sequence (SEQ ID NO: 2)	–	–	–	51 ± 20	51 ± 4	30 ± 1
